# According to PubChem BioAssay AID687016 (The Scripps Research Institute Molecular Screening Center, 2013):
# Amino acid sequences for entries named in this document (tags omitted).
# UniProt Q96T88, whole entry: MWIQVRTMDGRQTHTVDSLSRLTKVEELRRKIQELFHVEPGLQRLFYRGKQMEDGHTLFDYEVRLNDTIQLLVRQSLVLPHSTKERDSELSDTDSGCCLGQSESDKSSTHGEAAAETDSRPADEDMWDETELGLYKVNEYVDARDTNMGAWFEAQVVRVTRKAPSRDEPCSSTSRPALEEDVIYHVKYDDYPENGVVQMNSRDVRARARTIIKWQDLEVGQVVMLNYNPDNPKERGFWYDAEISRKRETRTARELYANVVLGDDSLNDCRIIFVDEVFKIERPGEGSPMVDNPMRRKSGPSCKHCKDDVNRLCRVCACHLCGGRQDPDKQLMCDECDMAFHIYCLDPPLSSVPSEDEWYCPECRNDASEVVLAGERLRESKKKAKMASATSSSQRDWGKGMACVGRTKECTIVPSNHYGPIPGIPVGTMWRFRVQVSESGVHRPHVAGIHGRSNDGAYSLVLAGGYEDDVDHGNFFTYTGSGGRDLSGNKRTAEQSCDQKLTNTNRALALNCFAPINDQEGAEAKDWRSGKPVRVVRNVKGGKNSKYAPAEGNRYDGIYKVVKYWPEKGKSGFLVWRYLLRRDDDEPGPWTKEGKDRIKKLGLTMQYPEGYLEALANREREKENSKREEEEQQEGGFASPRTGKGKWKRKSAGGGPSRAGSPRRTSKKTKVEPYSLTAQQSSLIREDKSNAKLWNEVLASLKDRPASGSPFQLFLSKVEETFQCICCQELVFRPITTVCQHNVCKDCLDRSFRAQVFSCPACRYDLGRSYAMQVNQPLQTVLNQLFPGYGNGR
# The list shows a part of the results, in another mix than the full data. Activity calls are given as the source filed them. No stated cut-off is given here; in the data, active means inhibition above about 21%; inactive means the rest.
# Biological target: E3 ubiquitin-protein ligase UHRF1 (Homo sapiens) (UniProt Q96T88)
# Experiment: UHRF1 methylated DNA binding inhibitors, primary screen, counter-screen for MBD2 inhibitor project, biochemical, TR-FRET, human UHRF1, single concentration (AID 687016);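 further: UHRF1 SRA domain binding a hemimethylated CpG hairpin DNA probe; 0% = median of test compound wells and 100% = reference inhibitor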
# Settings: UHRF1 binding to methylated oligo, at 4.4 µM, active compounds read high
row,SMILES,inhibition
1,O=C(OC1CN2CCC1CC2)c1ccc([N+](=O)[O-])cc1 (configuration not stated),inactive: 4.34%
2,O=C(OCCN1CCN(CCOCc2ccccc2)CC1)C(O)(c1ccccc1)c1ccccc1,inactive: 1.83%
3,CP(=O)(Nc1ccccc1F)Oc1ccccc1 (configuration not stated),inactive: 4.85%
4,CC(C)c1ccc(OP(C)(=O)Nc2ccc(SC(F)(F)F)cc2)cc1 (configuration not stated),inactive: -1.81%
5,O=[N+]([O-])c1cc([N+](=O)[O-])c(Nc2ccc(Cl)cc2)c([N+](=O)[O-])c1,inactive: -5.04%
6,COc1ccccc1OP(C)(=O)Nc1ccc(C)cc1C (configuration not stated),inactive: 0.1%
7,CP(=O)(Nc1ccccn1)Oc1ccccc1 (configuration not stated),inactive: -2.41%
8,CCc1ccc(OP(C)(=O)O)cc1,inactive: -1.98%
9,O=[N+]([O-])c1cc([N+](=O)[O-])c(Nc2ccccn2)c([N+](=O)[O-])c1,inactive: 0.65%
10,Cc1c(NP(C)(=O)Oc2ccc(C(C)C)cc2)c(=O)n(-c2ccccc2)n1C (configuration not stated),inactive: 0.83%
11,COc1ccc(OP(C)(=O)Nc2ccccn2)cc1 (configuration not stated),inactive: -3.95%
12,CN(C)CCOC(=O)C(O)(c1ccccc1)C1CCCC1 (configuration not stated),inactive: -1.09%
13,COc1ccccc1OP(C)(=O)Nc1ccc(Br)cc1 (configuration not stated),inactive: -1.6%
14,CP(=O)(OCCOc1ccccc1)OCCOc1ccccc1,inactive: 1.16%
15,CCCCCCCCCCCCCCCC1C[N+](C)(C)CCOP(C)(=O)O1 (configuration not stated),inactive: 4.1%
16,CP(=O)(Nc1ccc(Cl)cc1Cl)Oc1ccccc1 (configuration not stated),inactive: 3.96%
17,COc1ccccc1OP(C)(=O)Nc1ccc(C)c(C)c1 (configuration not stated),inactive: -0.18%
18,COc1ccc(OP(C)(=O)Nc2ccccc2Br)cc1 (configuration not stated),inactive: 0.11%
19,Cc1cc(C)cc(OP(C)(=O)Nc2cccc(C(F)(F)F)c2)c1 (configuration not stated),inactive: -3.31%
20,O=C1C(O)=C([N+](=O)[O-])C(=O)C(O)=C1[N+](=O)[O-],active: 34.8%
21,CCOC(=O)c1ccc(NP(C)(=O)Oc2ccc(Cl)cc2)cc1 (configuration not stated),inactive: 1.16%
22,CP(=O)(OC12CC3CC(CC(C3)C1)C2)OC12CC3CC(CC(C3)C1)C2,inactive: 4.47%
23,Nc1ccc2c(ccc3cccnc32)n1.O=[N+]([O-])c1cc([N+](=O)[O-])c(O)c([N+](=O)[O-])c1,inactive: -5.47%
24,CN(C)C(=O)c1c([N+](=O)[O-])cc([N+](=O)[O-])cc1[N+](=O)[O-],inactive: 6.74%
25,CC(C)(C)c1ccc(OP(C)(=O)O)cc1,inactive: -1.35%
26,COc1ccccc1OP(C)(=O)Nc1ccccc1Br (configuration not stated),inactive: -1.16%

row,SMILES,inhibition
1,CP(=O)(Nc1ccc(Cl)cc1)Oc1ccc(F)cc1 (configuration not stated),inactive: 6.73%
2,O=C(OCCCN1CCCC1)C(O)(c1ccccc1)C1CCCCC1 (configuration not stated),inactive: 1.48%
3,COc1ccccc1OP(C)(=O)Nc1c(C)n(C)n(-c2ccccc2)c1=O (configuration not stated),inactive: 0.16%
4,CCc1ccc(OP(C)(=O)Nc2cccnc2)cc1 (configuration not stated),inactive: 2.11%
5,CP(=O)(Oc1ccccc1)N1CCOC1=O (configuration not stated),inactive: -1.51%
6,COc1ccc(OP(C)(=O)Nc2ccc(Br)cc2)cc1 (configuration not stated),inactive: 0.19%
7,CCN(CC)CC(O)COC(=O)C(O)(c1ccccc1)C1CCCCC1 (configuration not stated),inactive: 0.34%
8,CP(=O)(Nc1ccccn1)Oc1ccc(Cl)cc1 (configuration not stated),inactive: 1.2%
9,CCOC(=O)c1ccc(NP(C)(=O)Oc2ccc(OC)cc2)cc1 (configuration not stated),inactive: 10.3%
10,O=[N+]([O-])c1cc([N+](=O)[O-])c(O)c([N+](=O)[O-])c1.c1ccc(Oc2ccncc2)cc1,active: 21.9%
11,CCOP(C)(=S)SCC(=O)NC(C)C(=O)O (configuration not stated),inactive: 2.15%
12,Cc1cc(C)cc(OP(C)(=O)Nc2ccc(SC(F)(F)F)cc2)c1 (configuration not stated),inactive: -1.49%
13,CCc1ccc(OP(C)(=O)N2CCN(c3ccc([N+](=O)[O-])cc3)CC2)cc1 (configuration not stated),inactive: 4.91%
14,CP(=O)(NC(=O)Nc1ccccc1)Oc1ccccc1 (configuration not stated),inactive: -1.71%
15,CP(=O)(Oc1ccccc1)OC(c1ccccc1)C(F)(F)F (configuration not stated),inactive: -0.27%
16,Cc1cccc(C)c1OP(C)(=O)Nc1ccc(SC(F)(F)F)cc1 (configuration not stated),inactive: 2.62%
17,CP(=O)(Nc1ccc(SC(F)(F)F)cc1)Oc1ccc(Cl)cc1 (configuration not stated),inactive: -0.78%
18,CP(=O)(Nc1ccccc1Br)Oc1ccccc1 (configuration not stated),inactive: 4.06%
19,COc1ccccc1OP(C)(=O)Nc1ccccc1 (configuration not stated),inactive: -1.29%
20,CP(=S)(Nn1cnnc1)Oc1ccccc1 (configuration not stated),inactive: -4.46%
21,Cc1cc(C)cc(OP(C)(N)=O)c1 (configuration not stated),inactive: 0.91%
22,COc1ccc(OP(C)(=O)Nc2cccc(F)c2)cc1 (configuration not stated),inactive: -0.34%
23,COc1ccccc1OP(C)(=O)Nc1cc(Cl)ccc1C (configuration not stated),inactive: 0.55%
24,Cc1ccc(NP(C)(=O)Oc2ccccc2)c(C)c1 (configuration not stated),inactive: -1.41%
25,COc1ccccc1OP(C)(=O)Nc1ccc(C)cc1 (configuration not stated),inactive: 4.66%
26,CCOC(=O)c1ccc(NP(C)(=O)Oc2ccccc2)cc1 (configuration not stated),inactive: -1.99%

row,SMILES,inhibition
1,O=[N+]([O-])c1ccc2c(c1)C=Nc1ccccc1O2,inactive: -4.09%
2,Cc1cccc(C)c1OP(C)(N)=O (configuration not stated),inactive: -0.83%
3,CC(C)(C)c1ccc(OP(C)(=O)Nc2ccc(SC(F)(F)F)cc2)cc1 (configuration not stated),inactive: 1.57%
4,O=[N+]([O-])c1cc([N+](=O)[O-])c(Nc2cccnc2)c([N+](=O)[O-])c1,inactive: -5.6%
5,COc1ccccc1-c1ccccn1.O=[N+]([O-])c1cc([N+](=O)[O-])c(O)c([N+](=O)[O-])c1,inactive: -1.96%
6,CCN(CC)CCCOC(=O)C(O)(c1ccccc1)c1ccccc1,inactive: 1.77%
7,Cc1ccc(C)c(NP(C)(=O)Oc2ccccc2)c1 (configuration not stated),inactive: -1.25%
8,CP(=O)(Nc1cccc(Br)c1)Oc1ccccc1 (configuration not stated),inactive: 3.5%
9,Cc1cc(C)cc(OP(C)(=O)Nc2ccccn2)c1 (configuration not stated),inactive: -1.1%
10,CCOC(=O)c1ccc(NP(C)(=O)Oc2cc(C)cc(C)c2)cc1 (configuration not stated),inactive: 3.68%
11,Cc1cc(C)cc(OP(C)(=O)Nc2ccc(C)cc2C)c1 (configuration not stated),inactive: -0.61%
12,COc1ccccc1OP(C)(=O)Nc1cccc(Br)c1 (configuration not stated),inactive: -2.75%
13,CC1=NCCc2c1[nH]c1ccccc21.O=[N+]([O-])c1cc([N+](=O)[O-])c(O)c([N+](=O)[O-])c1,inactive: 2.46%
14,O=C(O)c1cccc(Nc2c([N+](=O)[O-])cc([N+](=O)[O-])cc2[N+](=O)[O-])c1,inactive: -0.06%
15,COc1ccc(-c2ccccn2)cc1.O=[N+]([O-])c1cc([N+](=O)[O-])c(O)c([N+](=O)[O-])c1,inactive: 8.16%
16,CP(=O)(Nc1ccc(SC(F)(F)F)cc1)Oc1ccccc1 (configuration not stated),inactive: -0.39%
17,CCCOc1ccc(NP(C)(=O)Oc2ccc(Cl)cc2)cc1 (configuration not stated),inactive: 1.85%
18,COc1ccccc1OP(C)(=O)Nc1c(C)cccc1C (configuration not stated),inactive: -1.13%
19,CN1CCCCC1COC(=O)C1(O)c2ccccc2CCc2ccccc21 (configuration not stated),inactive: -0.58%
20,CCOC(=O)C(CC)C1=NC(C)(C)Cc2ccccc21.O=[N+]([O-])c1cc([N+](=O)[O-])c(O)c([N+](=O)[O-])c1 (configuration not stated),inactive: -3.64%
21,O=[N+]([O-])c1cc([N+](=O)[O-])c(Nc2nnnn2CCO)c([N+](=O)[O-])c1,inactive: -2.91%
22,Cc1nc2ccc3ccccc3c2s1.O=[N+]([O-])c1cc([N+](=O)[O-])c(O)c([N+](=O)[O-])c1,inactive: 4%
23,O=[N+]([O-])c1cc([N+](=O)[O-])c(-c2cnn(-c3ccccc3)c2)c([N+](=O)[O-])c1,inactive: 2.57%
24,CN(Cc1cccnc1)C(=O)COc1ccc(Cl)c(Cl)c1.O=[N+]([O-])c1cc([N+](=O)[O-])c(O)c([N+](=O)[O-])c1,inactive: -2.24%
25,O=[N+]([O-])c1cc([N+](=O)[O-])c(-n2nnc3ccccc32)c([N+](=O)[O-])c1,inactive: 4.92%
